Experiments:
[1] = molecular target: αvβ3 integrin (human (endogenous in MDA-MB-231 and HUVEC)) (UniProt P06756)
[2] = molecular target: αvβ3 integrin (human (endogenous in MDA-MB-231 and HUVEC)) (UniProt P06756); remark: listed apart in the source

Amino acid sequences for entries named in this document (tags omitted). Residues count along the entry.
UniProt P06756, 31-1048, chain 1 of 2: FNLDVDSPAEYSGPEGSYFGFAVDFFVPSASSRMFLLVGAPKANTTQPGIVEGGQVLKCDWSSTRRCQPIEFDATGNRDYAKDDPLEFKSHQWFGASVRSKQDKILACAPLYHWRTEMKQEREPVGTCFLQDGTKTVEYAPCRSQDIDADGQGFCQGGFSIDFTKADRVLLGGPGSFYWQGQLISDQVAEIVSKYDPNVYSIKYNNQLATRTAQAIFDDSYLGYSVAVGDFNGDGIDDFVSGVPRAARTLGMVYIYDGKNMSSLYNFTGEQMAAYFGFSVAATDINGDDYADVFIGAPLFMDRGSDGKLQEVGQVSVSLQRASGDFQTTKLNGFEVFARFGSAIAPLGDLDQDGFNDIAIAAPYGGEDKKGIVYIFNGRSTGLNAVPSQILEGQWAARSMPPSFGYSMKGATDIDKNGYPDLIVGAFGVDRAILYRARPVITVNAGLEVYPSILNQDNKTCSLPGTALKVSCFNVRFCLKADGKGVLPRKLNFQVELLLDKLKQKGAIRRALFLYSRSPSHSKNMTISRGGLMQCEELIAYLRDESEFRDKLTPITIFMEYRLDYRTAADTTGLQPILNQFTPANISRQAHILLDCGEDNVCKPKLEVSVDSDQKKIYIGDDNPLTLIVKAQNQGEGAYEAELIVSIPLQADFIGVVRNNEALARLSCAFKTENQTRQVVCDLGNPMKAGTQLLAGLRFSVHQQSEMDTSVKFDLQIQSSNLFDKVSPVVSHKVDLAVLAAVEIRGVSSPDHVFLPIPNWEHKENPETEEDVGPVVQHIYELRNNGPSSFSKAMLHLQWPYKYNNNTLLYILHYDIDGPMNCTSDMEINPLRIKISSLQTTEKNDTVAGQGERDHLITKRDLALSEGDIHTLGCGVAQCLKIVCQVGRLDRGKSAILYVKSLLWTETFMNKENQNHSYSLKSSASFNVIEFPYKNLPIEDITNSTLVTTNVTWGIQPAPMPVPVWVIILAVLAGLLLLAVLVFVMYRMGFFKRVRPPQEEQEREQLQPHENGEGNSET

With DisBa-01 (natural protein) as the substance, how does the IC50 of inhibition of MDA-MB-231 cell migration, Boyden chamber, hypoxia [1] read?
The IC50 of inhibition of MDA-MB-231 cell migration, Boyden chamber, hypoxia was 19.9 nM.

And the IC50 of inhibition of MDA-MB-231 cell migration, Boyden chamber, normoxia [1]?
The IC50 of inhibition of MDA-MB-231 cell migration, Boyden chamber, normoxia was 13.4 nM.

And the IC50 of inhibition of MDA-MB-231 transendothelial migration through a HUVEC monolayer, hypoxia [2]?
Its IC50 of inhibition of MDA-MB-231 transendothelial migration through a HUVEC monolayer, hypoxia is 5.22 nM.

And the IC50 of inhibition of MDA-MB-231 transendothelial migration through a HUVEC monolayer, normoxia [2]?
The IC50 of inhibition of MDA-MB-231 transendothelial migration through a HUVEC monolayer, normoxia was 5.24 nM.

From paper PMC8835904
